In assay [1] the target is MCL1/Bim (Homo sapiens (Human), UniProt Q07820). The assay can be described thus: MCL1/Bim Binding AlphaLISA Assay. Conditions: read-out: MCL1/Bim IC50, recombinant human 6xHis-MCL1 (171-327), biotinylated Bim peptide (51-76). As for the experimental part:
MCL1/Bim Binding AlphaLISA Assay.
Inhibition of the MCL1 and Bim interaction was measured in the following AlphaLISA assay.
Recombinant human MCL1 protein (C-terminal 6×His Tagged MCL1 containing residues 171-327) was generated at Gilead Sciences, Inc. (Foster City, Calif.). A biotinylated peptide derived from human Bim (residues 51-76) was purchased from CPC Scientific (Sunnyvale, Calif.). (CPC 834113). AlphaLISA anti-6His- acceptor beads (AL128R), AlphaScreen Streptavidin donor beads (6760002B), and Proxiplate-384 Plus (6008289) were purchased from PerkinElmer.
The AlphaLISA assay was performed in a 384-well Proxiplate in a total volume of […]. The reaction mixture contained 0.0625 nM 6×His-MCL1 (171-327), 0.0625 nM biotinylated-Bim peptide, 10 μg/mL AlphaLISA anti-6×His-AlphaLISA acceptor beads, 40 μg/mL AlphaScreen streptavidin donor beads, and serially diluted test compounds in the binding buffer (20 mM Hepes, pH 7.5 (Teknova H1035); 150 mM NaCl (Promega V4221); 0.002% Brij 35 (Thermo Scientific 20150); 1 mM Dithiothreitol (DTT) Solution (Affymetrix 70726); 0.01% BSA (BioLabs B9000S)). 1,000× test compounds were pre-spotted onto 384-well Proxiplate (Labcyte Echo) by Echo 555 Liquid Handler (Labcyte Inc., San Jose, Calif.) followed by incubation of 5 μL MCL1(171-327) for 1 hour. Then 5 μL Bim (51-76) was added and incubated for 2 hours. Five μL AlphaLISA anti-6His-AlphaLISA acceptor beads were then added for 1 hour followed by addition of 5 μL AlphaScreen streptavidin donor beads for 1 hour. The reaction plates were then read on an Envision multimode reader (PerkinElmer) using AlphaScreen settings. Percent inhibition was calculated as shown below: % Inhibition=100%*(Well−Neg)/(Pos−Neg) Neg: negative control, DMSO Pos: positive control, no MCL1 protein, no biotinylated-Bim peptide

By UniProt entry, the sequences of proteins in these tests, tags left out. Residues count along the entry.
UniProt Q07820, 171-327 limits assumed: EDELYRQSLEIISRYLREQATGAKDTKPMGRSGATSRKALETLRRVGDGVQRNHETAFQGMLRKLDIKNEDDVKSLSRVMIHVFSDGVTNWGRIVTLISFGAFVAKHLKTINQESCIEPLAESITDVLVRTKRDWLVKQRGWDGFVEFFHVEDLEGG

Assay [2] deals with SKBR3 cells. The assay can be described thus: SKBR3 Cell Viability Assay. Conditions: read-out: MCL1 CV SKBR3 EC50, 72 hours, CellTiter Glo. As for the experimental part:
SKBR3 Cell Viability Assay Materials
SKBR3 Cells (ATCC HTB-30) were obtained from ATCC (Manassas, Va.) and cultured in McCoy 5A's medium (ATCC 30-2007)+10% fetal bovine serum (SH30071.03, HyClone, Pittsburgh, Pa.) plus 1× Penicillin-Streptomycin L-glutamine (Corning 30-009-CI, Corning, N.Y.).
The cell viability assay was conducted in a 384-well tissue culture plate (Grenier 781086, Monroe, N.C.) in a total volume of 70 μL. Test compounds were prepared in 1,000×, serially diluted, and pre-spotted into 384-well tissue culture plate by Echo 555 Liquid Handler (Labcyte Inc., San Jose, Calif.). Seventy μL of 6,000 SKBR3 cells were dispensed into each well of the plate and incubated at 37° C. with 5% CO2 for 72 hours. At the end of incubation, 2× CellTiter Glo (CTG) reagents (1 part buffer with 2 parts substrate) (Promega, Madison, Wis.) were prepared, and the plate and the reagent were equilibrated to room temperature for 30 minutes. CTG reagent was added to each plate by Biomek FX at 20 μL/well with 5 times pipetting and mixing to induce cell lysis. Luminescence was read by Envision multimode reader (PerkinElmer). Percent inhibition was calculated as followed: % Inhibition=100%*(Well−Neg)/(Pos−Neg) Neg, negative control, DMSO Pos, positive control, 10 μM Puromycin

The results in this text go back to patent US11667652B2, “MCL1 inhibitors” (Gilead Sciences, Inc., priority 2019, dated 2023).

With `COC1CN(Cc2cc(C(=O)N[S@@]3(=O)=NC(=O)c4ccc5c(c4)N(C[C@@H]4CC[C@H]4[C@@H](OC)/C=C/C[C@H](C)C3)C[C@@]3(CCCc4cc(Cl)ccc43)CO5)cn2C)C1`, the IC50 in assay [1] was determined as 0.04 nM. In addition, in assay [2], the concentration for a half-maximal effect (EC50) worked out at 57.1 nM.

Take `COc1nn(C)cc1C(=O)N[S@@]1(=O)=NC(=O)c2ccc3c(c2)N(C[C@@H]2CC[C@H]2[C@@H](OC)C[C@@H]2[C@H](OC[C@@H]2C)[C@H](C)C1)C[C@@]1(CCCc2cc(Cl)ccc21)CO3` (single isomer, unassigned): the IC50 in assay [1] was 0.177 nM. Besides, the EC50 in assay [2] was determined as 294 nM.

With `CCn1cc(C(=O)N[S@@]2(=O)=NC(=O)c3ccc4c(c3)N(C[C@@H]3CC[C@H]3[C@@H](OCC3CC3)/C=C/C[C@H](C)C2)C[C@@]2(CCCc3cc(Cl)ccc32)CO4)cn1`, in assay [1], the IC50 came out at 0.124 nM. Moreover, in assay [2], the EC50 came to 361 nM.

With `CO[C@H]1/C=C/C[C@H](C)C[S@@](=O)(NC(=O)c2cc3n(c2)C[C@H](C)OC3)=NC(=O)c2ccc3c(n2)N(C[C@@H]2CC[C@H]21)C[C@@]1(CCCc2cc(Cl)ccc21)CO3`, the IC50 in assay [1] amounted to 0.22 nM. The EC50 in assay [2] came to 57.3 nM.

For the compound `CO[C@H]1/C=C/C[C@H](C)C[S@@](=O)(NC(=O)COC2CCOCC2)=NC(=O)c2ccc3c(c2)N(C[C@@H]2CC[C@H]21)C[C@]1(CO3)C[C@@H]2C[C@@H]2c2cc(Cl)ccc21`, the IC50 in assay [1] stood at 0.072 nM. The EC50 in assay [2] amounted to 100 nM.

Consider `CO[C@H]1/C=C/C[C@H](C)C[S@@](=O)(NC(=O)c2cnn(C)c2)=NC(=O)c2ccc3c(n2)N(C[C@@H]2CC[C@H]21)C[C@]1(CO3)C[C@@H]2C[C@@H]2c2cc(Cl)ccc21`, for which the IC50 in assay [1] stood at 0.05 nM. The EC50 in assay [2] was 115 nM.
